Patent US20070293512A1, “Condensed Pyrimidine Deriviative and Xanthine Oxidase Inhibitor” (priority 2004, published 2007)

Chains of the proteins cited; added tags and fusions are not shown.
UniProt P80457, whole entry: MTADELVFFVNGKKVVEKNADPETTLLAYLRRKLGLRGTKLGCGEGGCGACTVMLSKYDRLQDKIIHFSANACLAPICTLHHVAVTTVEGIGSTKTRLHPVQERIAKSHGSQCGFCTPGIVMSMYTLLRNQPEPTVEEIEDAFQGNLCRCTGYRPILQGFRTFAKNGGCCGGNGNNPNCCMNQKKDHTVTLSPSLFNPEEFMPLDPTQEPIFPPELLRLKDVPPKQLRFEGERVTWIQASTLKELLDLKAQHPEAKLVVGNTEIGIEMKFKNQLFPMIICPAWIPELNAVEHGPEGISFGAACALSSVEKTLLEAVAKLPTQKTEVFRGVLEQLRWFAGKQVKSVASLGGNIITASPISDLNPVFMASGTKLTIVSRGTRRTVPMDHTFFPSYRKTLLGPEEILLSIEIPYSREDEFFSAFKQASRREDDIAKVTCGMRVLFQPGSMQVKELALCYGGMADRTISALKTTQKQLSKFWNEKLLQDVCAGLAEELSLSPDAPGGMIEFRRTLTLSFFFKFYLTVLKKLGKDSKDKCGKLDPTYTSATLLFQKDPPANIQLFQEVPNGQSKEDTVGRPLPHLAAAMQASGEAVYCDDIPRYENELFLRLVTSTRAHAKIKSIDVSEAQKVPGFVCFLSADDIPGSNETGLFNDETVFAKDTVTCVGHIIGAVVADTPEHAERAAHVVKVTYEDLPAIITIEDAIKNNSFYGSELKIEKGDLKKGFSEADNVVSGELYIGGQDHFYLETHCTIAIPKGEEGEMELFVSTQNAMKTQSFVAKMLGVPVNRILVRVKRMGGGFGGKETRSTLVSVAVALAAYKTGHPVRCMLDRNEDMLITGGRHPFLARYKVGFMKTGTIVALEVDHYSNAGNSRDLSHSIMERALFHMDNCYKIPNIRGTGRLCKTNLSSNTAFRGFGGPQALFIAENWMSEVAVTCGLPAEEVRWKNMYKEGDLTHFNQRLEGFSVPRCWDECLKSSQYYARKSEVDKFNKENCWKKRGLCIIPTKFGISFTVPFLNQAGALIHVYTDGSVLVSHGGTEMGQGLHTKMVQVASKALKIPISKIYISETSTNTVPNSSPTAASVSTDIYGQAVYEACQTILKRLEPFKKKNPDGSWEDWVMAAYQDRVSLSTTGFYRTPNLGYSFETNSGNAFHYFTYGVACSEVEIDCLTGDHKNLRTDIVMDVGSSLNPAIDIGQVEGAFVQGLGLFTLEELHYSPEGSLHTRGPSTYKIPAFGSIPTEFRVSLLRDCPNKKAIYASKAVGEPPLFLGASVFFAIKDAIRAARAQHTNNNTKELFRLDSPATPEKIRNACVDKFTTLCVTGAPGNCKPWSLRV

Molecular target: T1, Cow milk Xanthine Oxidase (Bos taurus, UniProt P80457)
T1 construct: Cow milk Xanthine Oxidase (Roche); purchased Roche; host or cells: cow milk (natural source)
Assay: Xanthine oxidase inhibition, in vitro (oxidation of xanthine, absorbance at 290 nm)
Format: biochemical
Conditions: xanthine 250 μM, 50 mM phosphate buffer pH 7.5, 30° C., 10 minutes
Protocol: The xanthine oxidase inhibiting action (in vitro test) of the compound of the invention was confirmed by measuring inhibition of oxidation of xanthine by xanthine oxidase, as described in Example 50. As is clear from Tables 11 and 12, the compounds of the invention show excellent xanthine oxidase inhibiting action.
Pharmacological Experiment 1 (In Vitro Measuring Method)
1. Preparation of Test Sample
The test compound was dissolved in dimethylsulfoxide and diluted with 50 mM phosphate buffer (pH 7.5), to give a solution of a predetermined concentration.
125 μL of each of the solutions of the test compound having different concentrations was added to 1 mL of a solution of Xanthine (SIGMA, 250 μM) in the 50 mM phosphor buffer (pH 7.5). The mixture was then pre-incubated at 30° C. for 5 min. […] Subsequently, absorbance at OD 290 nm was measured by means of a spectrophotometer (Shimadzu UV-160A)., to obtain a inhibition ratio. The measured inhibition ration was used to obtain […]
The inhibition ratio was calculated according to the following formula: Inhibition ratio (%)=[1−(B−C)/(A−C)]×100 • A: absorbance of control • B: absorbance measured on a sample containing test compound • C: absorbance of blank (Test Results)

In the case of “2-[3-Cyano-4-(4-fluorophenoxy)phenyl]-4-hydroxythiazolo[5,4-d]pyrimidine potassium salt [Example 37]”, the IC50 is reported as 28.2 nM.
